Measured values published in paper PMC10987111, “Rational Identification of Novel Antibody‐Drug Conjugate with High Bystander Killing Effect against Heterogeneous Tumors” (Advanced Science, 2024).

Columns and labels:
[1] = tested on: NCI-N87 cell-driven xenograft; test: HER2+ NCI-N87 gastric cancer xenograft model; type: in vivo, BALB/c nude mice; details: single intravenous dose 1 mg kg^-1
Description: A suspension of 5 × 10^6 SKBR‐3 cells in 100 µL of 1: 1 PBS/Matrigel solution was injected subcutaneously into the armpit of female BALB/c nude mice aged 5–6 weeks (Day 0). On day 7, the tumors reached an average volume of ≈120 mm^3, mice were randomized to each group, and each drug or PBS was given to the mice at a single dose of 10 mg kg^−1 through injection via the tail vein, with a volume of 10 mL kg^−1. The size of the tumor and body weight were monitored twice a week. A suspension of 5 × 10^6 NCI‐N87 cells in 100 µL of PBS solution was injected subcutaneously into the flank of female BALB/c nude mice aged 5–6 weeks (Day 0). On day 7, the tumors reached an average volume of ≈110 mm^3, mice were randomized to each group, and each ADC was given to the mice at a single dose of 3 or 1 mg kg^−1 through injection via the tail vein, with a volume of 10 mL kg^−1. The size of the tumor and body weight were monitored three times a week. A suspension of 5 × 10^6 JIMT‐1 cells in 100 µL of 1: 1 PBS/Matrigel solution was injected subcutaneously into the flank of female BALB/c nude mice aged 4–5 weeks (Day 0). […] The size of the tumor and body weight were monitored three times a week. […]

JIMT-1 xenograft = JIMT-1 xenograft tumor model; type: in vivo, BALB/c nude mice; details: for tumor inhibitory effect: single dose 5 mg kg^-1, two weeks after administration
Description: (§1) A suspension of 5 × 10^6 SKBR‐3 cells in 100 µL of 1: 1 PBS/Matrigel solution was injected subcutaneously into the armpit of female BALB/c nude mice aged 5–6 weeks (Day 0). On day 7, the tumors reached an average volume of ≈120 mm^3, mice were randomized to each group, and each drug or PBS was given to the mice at a single dose of 10 mg kg^−1 through injection via the tail vein, with a volume of 10 mL kg^−1. The size of the tumor and body weight were monitored twice a week. A suspension of 5 × 10^6 NCI‐N87 cells in 100 µL of PBS solution was injected subcutaneously into the flank of female BALB/c nude mice aged 5–6 weeks (Day 0). On day 7, the tumors reached an average volume of ≈110 mm^3, mice were randomized to each group, and each ADC was given to the mice at a single dose of 3 or 1 mg kg^−1 through injection via the tail vein, with a volume of 10 mL kg^−1. The size of the tumor and body weight were monitored three times a week. A suspension of 5 × 10^6 JIMT‐1 cells in 100 µL of 1: 1 PBS/Matrigel solution was injected subcutaneously into the flank of female BALB/c nude mice aged 4–5 weeks (Day 0). On day 11, the tumors reached an average volume of ≈100 mm^3, mice were randomized to each group, and each drug or PBS was given to the mice at a single dose of 5 mg kg^−1 through injection via the tail vein, with a volume of 10 mL kg^−1. The size of the tumor and body weight were monitored three times a week. The tumor volume was estimated on the mathematical formula, which is 1/2 × length × width^2. […] After the sacrifice of mice, the tumors were isolated and collected for IHC analysis performed by Haoke Biotechnology Co., Ltd.

[2] = tested on: NCI-N87 cells and MDA-MB-231/teLuc cells (2: 5 ratio) xenograft; test: Xenograft mouse model of HER2-heterogeneous cancer (co-inoculation) with teLuc imaging; type: in vivo, BALB/c nude mice; details: for luciferase-mediated bioluminescent signal: MDA-MB-231/teLuc cells, DTZ substrate; for regression of HER2-negative tumors: quantified average radiance
Description: A mix suspension of 2 × 10^6 NCI‐N87 cells and 5 × 10^6 MDA‐MB‐231/teLuc cells in 100 µL of 1: 1 PBS/Matrigel solution was injected subcutaneously into the flank of female BALB/c nude mice aged 5–6 weeks (Day 0). On day 7, the tumors reached an average volume of ≈180 mm^3, mice were randomized to each group, and each ADC was given to the mice at a single dose of 5 or 2 mg kg^−1 through injection via the tail vein, with a volume of 10 mL kg^−1. The size of the tumor and body weight were monitored three times a week. The tumor volume was estimated on the mathematical formula, which is 1/2 × length × width^2. […] After the sacrifice of mice, the tumors and organs were isolated and collected for IHC analysis and H&E staining performed by Haoke Biotechnology Co., Ltd.
Teal luciferase activity of each mouse in the HER2‐heterogeneous xenograft model was determined by an in vivo Imaging System (IVIS) Spectrum CT (PerkinElmer, USA) once a week (Day 7, 14, 21, 35) 10 min after intraperitoneal injection of pre‐dissolved DTZ (MeisenCTCC). The amount of luminescence was analyzed using analysis software (Living Image Software version 4.3.1; PerkinElmer) as average radiance (p per s per cm^2 per sr).

[3] = tested on: SKBR-3 cell-driven xenograft; test: HER2+ breast cancer (SKBR-3) xenograft model; type: in vivo, BALB/c nude mice; details: single 10 mg kg^-1 dose, tail vein
Description: as §1

[4] = tested on: NCI-N87 and MDA-MB-231/GFP co-culture system; test: In vitro co-culture model for bystander-killing evaluation; type: cell-based, human; details: viability of MDA-MB-231/GFP in co-culture, especially cell ratio 1:5
Description: HER2‐positive cells (NCI‐N87 or SKBR‐3) and HER2‐negative cells (MDA‐MB‐231/GFP) were seeded in a clear bottom white 96‐well plate at 1000 cells per well and 2500 or 5000 cells per well (different ratios). After overnight incubation, a single concentration or a serially diluted solution of each ADC was added. Cell viability was evaluated after 120 h using the cell counting kit‐8 assay. The mixed cell viability was determined by CCK‐8 assay. The HER2‐negative cell viability was determined by detecting the GFP fluorescence intensity (Ex: 488 nm, Em: 507 nm) with a BioTek Synergy microplate reader. In the supernatant proliferation inhibition experiment, gradient concentrations of ADC were incubated with NCI‐N87 (4000 cells per well) for 48 h. Then the supernatant was incubated with MDA‐MB‐231 (3000 cells per well) for 72 h, and the cells viability were measured by CCK‐8 assay.

T-DXd
anti-tumor activity [1]: only partial inhibition of tumor growth | tumor inhibitory effect (JIMT-1 xenograft): good tumor inhibitory effects | luciferase-mediated bioluminescent signal [2]: notable decrease | regression of HER2-negative tumors [2]: tumor regrowth after day 35 | tumor volume change ([2]; single intravenous dose of 2 or 5 mg kg^-1): less effective

T-VAEd9
therapeutic effect (tumor) [3]: insignificant

T-VDXd
bystander-killing effect compared with T-DXd [4]: superior effects

T-VEd9
bystander-killing effect compared with T-DXd [4]: more pronounced | therapeutic effect (tumor) [3]: curative | anti-tumor activity [1]: significant potency | tumor suppression (JIMT-1 xenograft; single dose 5 mg kg^-1, end of the experiment): significant tumor suppression | tumor inhibitory effect (JIMT-1 xenograft): good tumor inhibitory effects | TGI ([2]; HER2 heterogeneity model): 99.3% | luciferase-mediated bioluminescent signal [2]: notable decrease | regression of HER2-negative tumors [2]: More complete regression

trastuzumab
therapeutic effect (tumor) [3]: insignificant
